Earlier results as cited in patent US11007356B2, “Ingestible device for delivery of therapeutic agent to the gastrointestinal tract” (Progenity, Inc., priority 2018, dated 2021).

Conditions: self-administration of 360,000 units, medical observation; cited from earlier work

Dalteparin
outcome of overdose: no notable sequelae
